The chains behind the UniProt entries cited, without tags or fusion partners.
UniProt O35346, whole entry: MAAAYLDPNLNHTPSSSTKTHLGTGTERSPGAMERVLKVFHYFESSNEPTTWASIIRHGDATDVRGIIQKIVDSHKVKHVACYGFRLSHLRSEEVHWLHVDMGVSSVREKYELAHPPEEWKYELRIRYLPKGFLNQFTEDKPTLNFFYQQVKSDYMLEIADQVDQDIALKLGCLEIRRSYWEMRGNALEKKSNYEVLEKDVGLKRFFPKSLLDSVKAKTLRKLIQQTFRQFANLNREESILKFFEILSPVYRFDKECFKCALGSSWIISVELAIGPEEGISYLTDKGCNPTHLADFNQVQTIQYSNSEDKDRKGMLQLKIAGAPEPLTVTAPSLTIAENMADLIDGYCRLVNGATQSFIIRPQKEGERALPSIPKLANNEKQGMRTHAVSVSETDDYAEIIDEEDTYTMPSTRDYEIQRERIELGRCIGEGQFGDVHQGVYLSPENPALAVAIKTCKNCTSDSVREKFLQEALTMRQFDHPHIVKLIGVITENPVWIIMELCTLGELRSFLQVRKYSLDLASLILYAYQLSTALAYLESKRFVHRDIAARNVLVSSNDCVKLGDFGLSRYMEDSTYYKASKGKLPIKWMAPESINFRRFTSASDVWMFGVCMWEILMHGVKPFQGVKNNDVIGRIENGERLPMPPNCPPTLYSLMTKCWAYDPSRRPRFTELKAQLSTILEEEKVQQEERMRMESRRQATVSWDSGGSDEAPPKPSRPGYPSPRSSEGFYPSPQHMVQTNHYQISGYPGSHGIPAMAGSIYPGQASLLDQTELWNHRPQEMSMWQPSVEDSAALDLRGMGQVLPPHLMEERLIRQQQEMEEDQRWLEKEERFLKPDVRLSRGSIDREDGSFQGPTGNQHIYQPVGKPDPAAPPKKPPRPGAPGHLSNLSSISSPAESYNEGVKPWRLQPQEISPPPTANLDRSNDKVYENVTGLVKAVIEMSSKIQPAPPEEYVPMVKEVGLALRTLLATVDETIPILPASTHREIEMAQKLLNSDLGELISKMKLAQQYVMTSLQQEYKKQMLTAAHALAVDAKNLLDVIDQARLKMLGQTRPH

In PMC2132894:

How the values were obtained:
[1] = biological target: focal adhesion kinase (FAK) of trypsinized cells (rat (endogenous in REF-2A)) (UniProt O35346); experiment: co-IP
[2] = biological target: focal adhesion kinase (FAK) of mitotic cells (rat (endogenous in REF-2A)) (UniProt O35346); experiment: co-IP

## c-Src (from UniProt Q9WUD9-1 1-536) (natural protein)
[1]
  percent of the level associated with interphase FAK: 70%
[2]
  percent of the level associated with interphase FAK: 13%
